Values quoted from earlier work as cited in publication PMC3638018.

Protein sequences, listed by entry. Tags and fused reporters are not part of them. Residues count along the entry.
UniProt P21583, 26-190: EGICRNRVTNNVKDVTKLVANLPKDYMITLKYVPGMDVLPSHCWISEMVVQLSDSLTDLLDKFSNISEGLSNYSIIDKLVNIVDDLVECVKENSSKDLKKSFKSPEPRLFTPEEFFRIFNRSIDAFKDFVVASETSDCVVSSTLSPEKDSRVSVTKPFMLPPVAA

Target: c-Kit (Homo sapiens) (UniProt P10721)

Kd: 2 nM
Substance: SCF (from UniProt P21583)
